Reference: paper PMC4515084 (Chemmedchem, 2015)

Experiment: Pharmacokinetic studies in rats
Conditions: rodents / rats

Structure (SMILES): CC1=C(C#N)[C@@H](c2ccc(C#N)cc2S(C)(=O)=O)N(C)C(=O)N1c1cccc(C(F)(F)F)c1 [Compound 29, (4S)-4-[4-Cyano-2-(methylsulfonyl)phenyl]-3,6-dimethyl-2-oxo-1-[3-(trifluoromethyl)phenyl]-1,2,3,4-tetrahydropyrimidine-5-carbonitrile]
- clearance: low clearance
